Test results: ChEMBL document CHEMBL4229322, “Antibacterial Paramagnetic Quinones from Actinoallomurus” (2017)

Tested on: Pseudomonas aeruginosa
Test: Antimicrobial activity against Pseudomonas aeruginosa ATCC 27853 by broth microdilution method
Type: functional

GENTAMICIN
MIC: 0.5 µg/mL
